Results as given in US7265156B2 (Dospharma, priority 2000, dated 2007).

Experiments:
[1] = rats, oral, 50 mg/kg, plasma metformin
[2] = tested on: rat hepatocyte primary cultures; experiment: In vitro cleavage assay on rat hepatocyte primary cultures; assay type: in vitro ADME; conditions: rat hepatocyte culture, over 24 hours
Protocol: A primary culture of rat hepatocytes, which are close to those of humans for metabolism studies, is used, in a HEPES medium to which a known amount of compound A′V′C′, of the order of one microgram, is added. The products are left in contact for 6 hours, and samples are taken, at 1 hour, 2 hours and 4 hours, on which the supernatant is isolated and the hepatocytes in the pellet are lysed. In these media, the concentrations of active principles A (biguanide) and C (transporter) released are measured. As previously, it is possible to calculate the Vmax and Km of the enzymes involved in the metabolism.
A second assay is carried out on a rat hepatocyte culture, according to the method described above. A slow release of arginine over 24 hours is observed.

arginine hemisuccinimide-metformin hemisuccinate
concentration peak [1]: 2900 ng/mL | release of arginine [2]: slow release
